# Reference: patent EP4837910A1, “ISOXAZOLINE COMPOUND AND PREPARATION METHOD THEREFOR, HERBICIDAL COMPOSITION, AND USE” (dated 2026)
# How the values were obtained:
# Zea mays = assay: Pre-emergence test, crop damage (greenhouse, sprayed immediately after sowing); conditions: Dosage 240 g a.i./ha, after 4 weeks in greenhouse, fresh weight control rate
# [1] = system: Monocotyledonous and dicotyledonous weed; assay: Post-emergence test on weeds (greenhouse, spray tower); conditions: after 3 weeks of cultivation in a greenhouse, fresh weight control rate
# [2] = system: Monocotyledonous and dicotyledonous weed; assay: Pre-emergence test on weeds (greenhouse, sprayed immediately after sowing); conditions: Dosage 240 g a.i./ha, after 4 weeks in greenhouse, fresh weight control rate
SMILES,"activity level of plant damage (growth control rate), Zea mays (Zea mays)","Avena fatua, activity level of plant damage (growth control rate) ([1]; Dosage 120 g a.i./ha)","activity level of plant damage (growth control rate), Lolium multiflorum [2]","Avena fatua, activity level of plant damage (growth control rate) ([1]; Dosage 240 g a.i./ha)","activity level of plant damage (growth control rate), Digitaria sanguinalis [2]","activity level of plant damage (growth control rate), Setaria viridis [2]","activity level of plant damage (growth control rate), Descurainia sophia [2]","Digitaria sanguinalis, activity level of plant damage (growth control rate) ([1]; Dosage 240 g a.i./ha)","Echinochloa crus-galli, activity level of plant damage (growth control rate) ([1]; Dosage 240 g a.i./ha)","Amaranthus retroflexus, activity level of plant damage (growth control rate) ([1]; Dosage 60 g a.i./ha)","Digitaria sanguinalis, activity level of plant damage (growth control rate) ([1]; Dosage 60 g a.i./ha)","Echinochloa crus-galli, activity level of plant damage (growth control rate) ([1]; Dosage 60 g a.i./ha)","Amaranthus retroflexus, activity level of plant damage (growth control rate) ([1]; Dosage 240 g a.i./ha)"
C=C[C@]1(C(=O)N[C@@H](C)C(=O)NOC)CC(c2cc(Cl)cc(C(F)(F)F)c2)=NO1,1 (Level 1: growth control rate less than 10%),9,9,,,,,,,,,,
C=C[C@]1(C(=O)N[C@@H](C)C(=S)N(C)OC)CC(c2cc(F)cc(F)c2)=NO1,2 (Level 2: growth control rate greater than or equal to 10% and less than 20%),,6 (Level 6: growth control rate greater than or equal to 70% and less than 80%),8 (Level 8: growth control rate greater than or equal to 90% and less than 100%),9,9,,,,,,,
C=C[C@]1(C(=O)N[C@H](C)C(=O)NOC)CC(c2cc(Cl)cc(Cl)c2)=NO1,1 (Level 1: growth control rate less than 10%),,9,9,7 (Level 7: growth control rate greater than or equal to 80% and less than 90%),,9,,,,,,
C#CC[C@H](NC(=O)[C@@]1(C=C)CC(c2cc(F)cc(F)c2)=NO1)C(=O)N(C)OC,0,,9,9,8 (Level 8: growth control rate greater than or equal to 90% and less than 100%),7 (Level 7: growth control rate greater than or equal to 80% and less than 90%),9,,,,,,
C=C[C@]1(C(=O)N[C@@H](C)C(=O)NOC)CC(c2cc(F)cc(F)c2)=NO1,1 (Level 1: growth control rate less than 10%),,8 (Level 8: growth control rate greater than or equal to 90% and less than 100%),9,5 (Level 5: growth control rate greater than or equal to 50% and less than 70%),5 (Level 5: growth control rate greater than or equal to 50% and less than 70%),,9,8 (Level 8: growth control rate greater than or equal to 90% and less than 100%),,,,
C=C[C@]1(C(=O)N[C@@H](C)C(=O)NOCC)CC(c2cc(Br)cc(C(F)(F)F)c2)=NO1,1 (Level 1: growth control rate less than 10%),,7 (Level 7: growth control rate greater than or equal to 80% and less than 90%),,,,9,,,7 (Level 7: growth control rate greater than or equal to 80% and less than 90%),,,
C=C[C@]1(C(=O)N[C@@H](C)C(=O)N(C)OC)CC(c2cc(Br)cc(Br)c2)=NO1,0,9,8 (Level 8: growth control rate greater than or equal to 90% and less than 100%),,9,9,,,,,,,
C#CC[C@H](NC(=O)[C@@]1(C(=C)C)CC(c2cc(F)cc(F)c2)=NO1)C(=O)NOCC,1 (Level 1: growth control rate less than 10%),,,,9,8 (Level 8: growth control rate greater than or equal to 90% and less than 100%),,,,8 (Level 8: growth control rate greater than or equal to 90% and less than 100%),8 (Level 8: growth control rate greater than or equal to 90% and less than 100%),6 (Level 6: growth control rate greater than or equal to 70% and less than 80%),
C=C(C)[C@]1(C(=O)N[C@@H](C)C(=O)NOCCCF)CC(c2cc(F)cc(F)c2)=NO1,2 (Level 2: growth control rate greater than or equal to 10% and less than 20%),,,,9,9,,,,8 (Level 8: growth control rate greater than or equal to 90% and less than 100%),8 (Level 8: growth control rate greater than or equal to 90% and less than 100%),8 (Level 8: growth control rate greater than or equal to 90% and less than 100%),
C=C[C@]1(C(=O)N[C@@H](C)C(=O)NOC)CC(c2cc(F)cc(Cl)c2)=NO1,0,,9,,,,9,6 (Level 6: growth control rate greater than or equal to 70% and less than 80%),,,,,
C=C[C@]1(C(=O)N[C@@H](C)C(=O)NOC)CC(c2cc(Cl)cc(Cl)c2)=NO1,0,,9,,,,5 (Level 5: growth control rate greater than or equal to 50% and less than 70%),8 (Level 8: growth control rate greater than or equal to 90% and less than 100%),,,,,5 (Level 5: growth control rate greater than or equal to 50% and less than 70%)
CON(C)C(=O)[C@H](C)NC(=O)C1(C(C)(F)F)CC(c2cc(F)cc(F)c2)=NO1 (some centres unmarked),2 (Level 2: growth control rate greater than or equal to 10% and less than 20%),,9,,9,9,9,,,6 (Level 6: growth control rate greater than or equal to 70% and less than 80%),,,
